# scFv variants of Ab-91 (heavy chain) against a SARS-CoV-2 spike peptide

Reference: Engelhart et al. 2022, doi:10.1038/s41597-022-01779-4. File: FLAb, binding data.

Target: peptide PDVDLGDISGINAS, taken from heptad repeat 2 (HR2) of SARS-CoV-2 spike.

Parent scFv Ab-91: VL joined to VH by a (GGGGS)3 linker. Changes lie in the heavy chain CDRs alone.
VL: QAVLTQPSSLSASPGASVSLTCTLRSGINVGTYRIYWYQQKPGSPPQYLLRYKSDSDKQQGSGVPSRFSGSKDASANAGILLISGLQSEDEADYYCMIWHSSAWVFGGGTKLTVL
VH: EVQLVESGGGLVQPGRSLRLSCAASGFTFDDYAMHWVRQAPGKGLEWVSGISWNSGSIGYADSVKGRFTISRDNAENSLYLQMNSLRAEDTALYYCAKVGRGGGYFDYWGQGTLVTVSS

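In library AAYL51, one, two or three CDR residues were substituted; doubles and triples were drawn at random. AlphaSeq pools MATa yeast showing the antibodies with MATalpha yeast showing the peptide. The frequency of each diploid, read from paired DNA barcodes, reflects how well the two displayed proteins bind. Each replicate has its own calibration line, from reference interactions of the BCL2 family. Each pool was mated in three replicate cultures.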

The parent's heavy chain CDRs are GFTFDDYAMH, GISWNSGSIGYADSVK, VGRGGGYFDY; each variant's own CDRs replace them letter for letter.
Affinities are written as log10 Kd with Kd in nM; a lower number is a better binder.
The mean shown is taken over the replicates in which the pair was detected.
"not detected" means that the variant was in the library but no mating with the target was seen in any replicate; the authors take this as a sign of poor binding, and no number exists.

CDR-H1	CDR-H2	CDR-H3	mean, log10 nM	detected
GFVFDDYAMH	GISWNSGSIGYQDSVK	VGRGGGYFDG	not detected	0 of 3
GFTFDDYAGH	GISRNSGSIGYADSVK	VGRGGGYFCY	3.82	1 of 3
GFTFDDYAMH	GISWNSGWIGYADSVK	VGEGGGAFDY	4.02	1 of 3
GFTFDDYAMH	GISWNSGSIGHIDSVH	VGRGGGYFDY	5.44	2 of 3
GFTFDDLAVV	GISWNSGSIGYADSVK	VGRGGGYFDY	5.93	2 of 3
GFTFDDYAMH	GISWNSGSIGYFDSVI	VGRGGGYFDY	not detected	0 of 3
GFTFDDYAMH	GISRCSGSIGYADSVK	VGRGGGHFDY	5.25	2 of 3
GFTFDDYAMC	GISWNSGSIGYADSVK	VGRGGGYCPY	4.09	1 of 3
GFTFDDYAMH	GISWNSGSRGYADSVK	VVRGGGYFDY	2.82	3 of 3
GFTFRDYAMH	GASWNSGSIGYADMVK	VGRGGGYFDY	not detected	0 of 3
GFTFDDYAMH	GISWNSGSIGYLDSVK	VGRGGGAFDY	3.05	3 of 3
GFTFDDGAMH	KISWNSGSIGYFDSVK	VGRGGGYFDY	not detected	0 of 3
GFTFVDYAMH	GISWCSGSIGYADSVK	VGRGGGMFDY	not detected	0 of 3
GFTFDDYAML	GISWNSGSIGYTDSVK	VGRGGGYFDQ	3.82	1 of 3
GFTFDDYANH	GISWNSGRIGYADSVA	VGRGGGYFDY	4.25	1 of 3
GFVFDYYAMH	GISWNSGSIGYADSVK	VGRGGGQFDY	2.14	3 of 3
GFTFDDYWMH	GASWNSGSIGYADSVK	VGRGGQYFDY	5.56	1 of 3
GFTFDDYAMH	GISWNSGSIGNADSVK	VGQGGCYFDY	4.59	1 of 3
GKTFDDYAMH	GISWNSGSIGYADSVK	VGREGNYFDY	5.97	3 of 3
GFTFSDYAMP	GISWNSGSWGYADSVK	VGRGGGYFDY	4.21	1 of 3
GFTHDDQMMH	GISWNSGSIGYADSVK	VGRGGGYFDY	3.66	1 of 3
GFYFDDYAMH	GRSWNSGSIGYAMSVK	VGRGGGYFDY	3.93	1 of 3
TFTFDHYAMH	GISWNSGSIQYADSVK	VGRGGGYFDY	5.55	1 of 3
GFTFVDYAMH	GISWNSGSAGYADSVK	VGRGGGYFDL	4.13	1 of 3
GFTFDDYTMH	GISHNSGSIGHADSVK	VGRGGGYFDY	not detected	0 of 3
GFTFDDYAMH	GISWNSGSHGKADSVK	VPRGGGYFDY	5.23	2 of 3
HFTFDDYAMH	GISWNSGSIGYALSVK	VFRGGGYFDY	not detected	0 of 3
GFTFDDYAMH	GISWNIGSIGYADSVK	VGRVCGYFDY	not detected	0 of 3
GFTDDDYAMH	GISWNMGSIGYADSVK	VGRGGGYFDY	not detected	0 of 3
MFTFDDYAMQ	GISWNSGSIGYADSVK	VGRGGGYFDW	4.00	1 of 3
GFTFADYAMH	GISFNSGSIGYADSVK	VGRGGGYFTY	not detected	0 of 3
GFTFDDYAMH	GISWNSPSPGYADSWK	VGRGGGYFDY	4.60	2 of 3
GFTFDDYAMH	GISWNSGSIEYADSNK	VGRGGGYFDN	not detected	0 of 3
GFTFDDYAMT	GISWNSGSITYADSVK	VGRGGGYDDY	not detected	0 of 3
GFTFDDYAMH	GIPWNSGSIGYADSVK	VGRKYGYFDY	3.37	1 of 3
GFTFDDYARH	GISWNSGSCGYADTVK	VGRGGGYFDY	not detected	0 of 3
GFTFDDYAME	GISWNSGSIGYADSVK	MGRGGGYRDY	4.48	3 of 3
GFTFDDYAMW	GILWNSASIGYADSVK	VGRGGGYFDY	not detected	0 of 3
GFTFDDYAMH	GISWNSGIIGYADSHK	VGRGGGYFDY	4.50	3 of 3
GFTFDDIALH	GISWNSGSIGYADSVK	VGRGGGYFDK	not detected	0 of 3
GFTFDDYAMH	GGSWNSGSIGYKDSVK	VGRGGGYFWY	3.00	1 of 3
GFTFDLYAMH	GISWNSGSIGYDDSVK	VGRGGGYFDY	2.87	3 of 3
GFTFDDYAMH	GISWNSLSIGYADSVK	SGRGGGYFDY	not detected	0 of 3
GFTFDDYAMH	GISWNSTSIGYALSVK	VGRGGGYFDY	3.95	3 of 3
GFTMDDYAMH	GISWNSGSIGPADSVK	VGRGGGPFDY	not detected	0 of 3
GFTSDDYAMH	GISWNSGSFGYADSVK	VGRGGGYFDV	4.85	2 of 3
GFTFDDYAMH	GISWNWGSIGYADSVK	VGRNGGYFAY	not detected	0 of 3
KFTFDDYAMH	GISWNSGSIGYADSVK	VGRGYGYFDI	not detected	0 of 3
TFTTDDYAMH	GISWNSGSIGYADSVK	FGRGGGYFDY	4.38	1 of 3
GFTFDDYAQH	GISWNSGSIGYADSVK	TGCGGGYFDY	not detected	0 of 3
GFNFDDYIMH	GISWNSGSIGRADSVK	VGRGGGYFDY	5.25	2 of 3
GFTFDDYAMH	GISKNLGSIGYADSVK	VGRGGMYFDY	not detected	0 of 3
GPTFDDYLMH	GISWNSGSIGYADSVK	VGRLGGYFDY	not detected	0 of 3
GFTFVDYAMH	NISWNSGSICYADSVK	VGRGGGYFDY	4.68	3 of 3
LFTFDDYAMH	GISWNSGSIGYDDSVK	VGRGGGYFDW	4.21	2 of 3
GFTFDDMAMH	GISWNSGSIGYADSVK	VGRGGGYFVY	1.41	3 of 3
GFTFDDYAMH	GISWNSGLLGYADSVK	VGRGGGYFDY	not detected	0 of 3
GFTFDSYAMH	GISWNSGSIGHADSVK	VGRGGGVFDY	not detected	0 of 3
GFLFDFYAMH	GISWNSGSIGYADSVK	VGRGGGYPDY	1.79	3 of 3
GFTFDDYAMH	GPSWNSGSIGYADSVK	VGMGGGYFDY	4.75	1 of 3
GFTFDDYPMH	GISWNSGLSGYADSVK	VGRGGGYFDY	1.93	3 of 3
GFTFDDYAMV	GISWNSMSIGYADSVK	VGRGGGYFWY	4.11	1 of 3
GFTFDDYAMH	GISVNSGSIGYADSVI	VGRGGGYFRY	2.03	3 of 3
GFTFDDYPMH	GISWNSGSSGYADSVK	SGRGGGYFDY	4.90	2 of 3
TFTFDDYAPH	GISWNSGSIGYADSSK	VGRGGGYFDY	4.80	3 of 3
GATFDDYAMH	GISWNSGSIGYAFSVK	VGRGGVYFDY	not detected	0 of 3
EFTFDDYAMH	GIRWNHGSIGYADSVK	VGRGGGYFDY	5.40	2 of 3
GFTFDDYAMM	GISWNSGSGGYADLVK	VGRGGGYFDY	not detected	0 of 3
GITFDDYAMH	GIMWNSGSIGYADSVK	VGRGYGYFDY	4.71	1 of 3
GFTFPDYAHH	GISWNSGSIGYADSVK	VGRGRGYFDY	not detected	0 of 3
GFTFDDYHMH	GISWNSGSIGEADMVK	VGRGGGYFDY	not detected	0 of 3
GFTFDDYASH	GISWNSGSIGYADSVS	VGRGGGYFDY	not detected	0 of 3
GFTFDDYAMH	GISWNSSSIGYADSVE	VHRGGGYFDY	3.16	3 of 3
GFTFDDYARH	GISWFSGSIGYADSVK	VGRGGGSFDY	not detected	0 of 3
GFTFDDGAMH	GISWNRGSIGYADSVK	VMRGGGYFDY	5.63	1 of 3
GFTFDWYAMH	GISWNSGSIWYADSVK	VGRGGGYFDY	not detected	0 of 3

Extract of 4 entries:

CDR-H1,CDR-H2,CDR-H3,"mean, log10 nM",detected
GFTFVDYAMH,GISWNSGSAGYADSVK,VGRGGGYFDL,4.13,1 of 3
GFTFDDYAME,GISWNSGSIGYADSVK,MGRGGGYRDY,4.48,3 of 3
GFTFDSYAMH,GISWNSGSIGHADSVK,VGRGGGVFDY,not detected,0 of 3
MFTFDDYAMQ,GISWNSGSIGYADSVK,VGRGGGYFDW,4.00,1 of 3

Empty control strains, which show no peptide, gave a signal in 21% of pairings with library AAYL51; the median was 4.54 and 95% of these signals were weaker than 3.26. No background was subtracted.
For reference, the parent read 1.86 as the reference entry and 0.88 as a member of this library.